Antibody variant affinities, Ab-14 light chain, assay B

From the AlphaSeq antibody data of Li et al. 2023 (doi:10.1038/s41467-023-39022-2), copy in the FLAb collection.

Target peptide (SARS-CoV-2 spike, HR2 region): PDVDLGDISGINAS

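These sequences belong to a second round, designed from the earlier measurements on random variants of the parent. Their group label is 14L_En_HC (En: ensemble of fine-tuned language models; HC: hill climbing; a sequence that several methods proposed may carry one label only). AlphaSeq pools MATa yeast showing the antibodies with MATalpha yeast showing the peptide. Binding brings cells together so that they mate, and sequencing counts the barcode pairs among the diploids. A regression on co-assayed BCL2-family reference pairs converts the normalised counts of each replicate to an apparent Kd. Each pool was mated in six replicate cultures.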

Each scFv is VH, a 15-residue (Gly4Ser)3 linker, VL, as in the parent Ab-14, and differs from it in the CDRs of the light chain only.
VH: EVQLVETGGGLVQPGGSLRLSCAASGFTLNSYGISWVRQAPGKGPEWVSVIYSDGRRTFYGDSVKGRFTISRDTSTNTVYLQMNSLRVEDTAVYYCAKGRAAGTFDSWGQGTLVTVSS
VL: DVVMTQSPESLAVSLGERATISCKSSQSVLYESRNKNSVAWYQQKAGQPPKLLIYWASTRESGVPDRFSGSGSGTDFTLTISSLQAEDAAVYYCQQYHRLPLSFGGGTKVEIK

Variants are written as CDR1, CDR2 and CDR3 of the light chain (limits as in the source). Parent: KSSQSVLYESRNKNSVA, WASTRES, QQYHRLPLS.
The read-out is the apparent dissociation constant on a log10 scale (nM): the lower, the stronger.
Where no diploid with the target was found in that replicate, the entry reads "n.d.": below detection, most likely a poor binder, though not proof of it.
Values of this round are not directly comparable with the first-round values of the same sequences.
Nonspecific signal, from three strains lacking the peptide, appeared in 4% of pairings of all light chain designs, centred on 2.64 (5% of these signals below 1.59); values are not corrected for it. Also given: how often the same scFv was detected with the empty control strains, with their mean in brackets.
The authors' rule: three or more of the six replicates give a measured affinity, fewer mean a poor binder.

| # | CDR-L1 | CDR-L2 | CDR-L3 | log10 Kd, replicates | empty controls |
|---|---|---|---|---|---|
| 1 | KIGGVTNGFSRSKNSVA | EQSTRED | QQYDRLPLS | n.d. 1.88 0.95 0.70 1.69 1.98 | 0 of 18 |
| 2 | HFSQVTMYGLWNKNSVA | QTSTREE | QQYDRLPLS | 0.76 0.53 1.43 0.84 0.98 0.69 | 1 of 18 (1.84) |
| 3 | TLSQSMDMTSRNKNSVA | DLSTREN | QQYHRLPLS | 1.53 2.30 n.d. 1.42 1.10 1.67 | 0 of 18 |
| 4 | KLSVSWLFESIEKNSVA | ERSTRED | QDYNRLPLS | 1.76 1.61 1.48 1.40 0.97 1.20 | 0 of 18 |
| 5 | KLAQSVAMTSHGINSVA | QSTTREE | QQYNRLPLS | 0.13 -0.35 -0.48 -0.02 -0.37 -0.44 | 0 of 18 |
| 6 | KISMLYNFAQTNKNSIA | EMTTRES | QHYHRLPLS | 1.16 1.50 1.42 2.34 1.06 1.32 | 0 of 18 |
| 7 | HMSQVTMYGMWLKNSVA | QTSTREE | QQYDRLPLS | 0.31 0.54 0.32 0.27 1.05 1.72 | 0 of 18 |
| 8 | IISQSMLYESATHNSIA | QTETREE | QQYHHLPLI | 0.99 1.15 0.77 0.96 1.49 1.31 | 1 of 18 (3.28) |
| 9 | MISDLMLYGSRAKNPIA | NASMREY | QQYHRLPLE | 2.93 1.44 1.22 1.14 1.14 1.78 | 1 of 18 (2.58) |
| 10 | IISQSMLYETATHNSIA | QTETREE | QQYHHLPLI | 1.53 0.78 0.65 1.35 1.34 0.78 | 0 of 18 |
| 11 | KLSMVTNSEHKVKNSIA | EMVTREV | QQYDRLPLE | 1.03 0.78 0.62 0.77 0.54 0.86 | 0 of 18 |
| 12 | TVSQVEGMLSHNKNSVA | DMNTRGS | QQYDRLPLS | 0.29 0.45 0.04 0.13 0.22 0.37 | 1 of 18 (3.00) |
| 13 | KLYQSTAMTSRMRNNVA | DLNERER | QQYFRLPLS | 0.43 0.24 0.27 0.30 -0.08 0.58 | 0 of 18 |
| 14 | NFSQMVLTGSTLRNSVA | HASTRFD | QQYHRLPLI | n.d. 1.63 1.15 1.57 0.88 1.95 | 0 of 18 |
| 15 | MLSDHVKMGSRNTNSVA | DNSTRGS | QQYDRLPLS | 0.97 1.63 1.79 2.28 1.32 1.69 | 3 of 18 (2.80) |
| 16 | KISQLVNFEGKNKNSVA | QMSTREQ | QQYDRLPLS | 0.56 0.49 0.59 0.47 0.46 0.45 | 0 of 18 |
| 17 | KLYQMTGIESHNKNSLA | DANRRES | QQYHRLPLS | 0.46 -0.19 0.05 -0.17 0.33 0.15 | 1 of 18 (2.80) |
| 18 | KLYQNVGTMSHNKQSIA | DMERREQ | QQYHRLPLS | 0.37 0.33 0.34 0.02 0.34 0.67 | 1 of 18 (1.97) |
| 19 | HLGGLMTWESKARNSVA | QQNTRAE | QQYHRLPLS | 0.70 0.53 0.58 0.45 0.45 0.67 | 1 of 18 (4.05) |
| 20 | IFSQSVLMGNLTKNSIA | QASTRFS | QQYHRLPLI | 2.41 1.80 1.11 1.53 2.18 1.87 | 1 of 18 (2.01) |
| 21 | TISGLANYESTNTNSVA | ELTMRGQ | QQYERLPLS | n.d. 0.87 n.d. n.d. n.d. n.d. | 0 of 18 |
| 22 | KLYQLTAMTSRMKNNVA | DLNERER | QQYFRLPLS | 0.62 0.09 0.67 0.14 0.63 0.81 | 0 of 18 |
| 23 | KITGMWTFQSHNRNNIA | EESTRED | QSYHRLPLS | 0.37 1.11 0.45 0.21 0.14 0.50 | 0 of 18 |
| 24 | MISDLTMYGSRAKNSVA | DSSTRGS | QQYHRLPLS | 0.17 -0.10 0.04 -0.10 0.11 0.13 | 1 of 18 (1.53) |
| 25 | KLSMMVDYMSATHSSVA | QTSTREE | QQYHRLPLS | 0.07 0.09 0.12 0.07 0.05 0.52 | 1 of 18 (1.83) |
| 26 | TISSMWFIESKNRNNVA | EMTTREN | QDYDRLPLS | 2.66 1.77 1.89 2.32 n.d. 1.13 | 0 of 18 |
| 27 | TISTSMRYESSLKNAIA | NAQTRES | QQYHRLPIS | 0.80 0.42 1.04 0.84 1.04 0.65 | 2 of 18 (3.21) |
| 28 | MLSDLVKMGSRNTNSVA | DNSTRGS | QQYDRLPLA | 2.85 2.42 3.44 1.44 1.58 2.05 | 1 of 18 (2.82) |
| 29 | TLGDVTRMESNKKKSIA | DMSNRAD | QQYHRLPLS | 0.63 1.04 1.24 1.11 0.35 0.73 | 1 of 18 (1.91) |
| 30 | TLTQVQGMESHNSNSVA | DLSTRGS | QQYHRLPLS | 0.61 0.42 0.41 0.46 0.42 0.46 | 3 of 18 (3.16) |
| 31 | QLLMATMQGSYNRNSVA | HAQTRND | QSYHRLPLS | 1.81 1.60 1.66 2.66 1.69 1.46 | 2 of 18 (2.75) |
| 32 | TIGQSAHETSRNKNSVA | HASTRED | QQYDRLPLS | 0.54 0.18 -0.11 0.45 0.23 0.45 | 2 of 18 (2.27) |
| 33 | KLYMITGYESRNADSIA | DNSTRGR | QQYHRLPLS | 1.31 2.08 1.37 1.32 1.40 2.01 | 0 of 18 |
| 34 | HVSEMIMAQSKMRNSVA | ENSTREA | QQYDRLPLS | 2.39 2.62 n.d. 1.25 2.15 2.25 | 0 of 18 |
| 35 | KLSMSYRYESQEKNSIA | EMNTREE | QSYHRLPLS | 1.76 1.18 1.27 1.13 1.19 1.07 | 0 of 18 |
| 36 | TLVQSVMGSSRTKNSVA | NASTRED | QHYHRLPLS | 0.35 0.18 0.13 0.01 0.28 0.30 | 2 of 18 (3.37) |
| 37 | TISQMFLGESRMRNSVA | QASTRES | QSYDRLPLS | 1.94 2.56 2.68 1.91 2.38 2.17 | 4 of 18 (2.33) |
| 38 | MFSQSVMYGSFMRNSVA | QTTTREN | QQYDRLPLS | 1.28 1.69 1.13 1.19 1.37 1.61 | 1 of 18 (2.72) |
| 39 | TLSQVTHSESRNKNSIA | EMVTREV | QQYDRLPLS | 0.07 0.91 1.15 0.41 0.54 0.93 | 1 of 18 (2.25) |
| 40 | KLYQMTGIESHAKNSLA | DANRREA | QQYHRLPLS | 0.44 0.53 0.45 0.14 0.38 0.33 | 2 of 18 (3.17) |
| 41 | IISGSMLMESRSKNSVA | NAETREY | QHYDRLPLS | 1.62 1.81 1.52 1.05 1.33 1.70 | 1 of 18 (4.41) |
| 42 | KLGSVTSYEMQNKNSVA | QMTTRES | QQYHRLPLS | 0.15 0.04 0.18 -0.20 -0.12 0.05 | 0 of 18 |
| 43 | KILGVTNGISRNKNSVA | EQSTRED | QQYNRLPLS | 0.52 0.52 0.45 0.43 0.42 0.52 | 0 of 18 |
| 44 | HISQSVGMTSFNKQSVA | ENSTREN | QQYDRLPLS | n.d. n.d. n.d. 2.72 n.d. 2.78 | 2 of 18 (2.92) |
| 45 | MFSQSVMAGSFYRNSVA | QTSTRES | QQYDRLPLS | 0.59 0.80 0.43 0.22 0.57 0.69 | 0 of 18 |
| 46 | KISQLVNFEGKNLNSVA | QMSTRES | QQYDRLPLS | 0.47 -0.05 1.04 -0.31 0.10 0.45 | 1 of 18 (1.35) |
| 47 | TLGGVTSYEMENKNSVA | QMTTRES | QQYHRLPLS | 0.83 0.46 0.23 0.25 0.17 0.62 | 0 of 18 |

The first 4 entries again:

CDR-L1,CDR-L2,CDR-L3,"log10 Kd, replicates",empty controls
KIGGVTNGFSRSKNSVA,EQSTRED,QQYDRLPLS,n.d. 1.88 0.95 0.70 1.69 1.98,0 of 18
HFSQVTMYGLWNKNSVA,QTSTREE,QQYDRLPLS,0.76 0.53 1.43 0.84 0.98 0.69,1 of 18 (1.84)
TLSQSMDMTSRNKNSVA,DLSTREN,QQYHRLPLS,1.53 2.30 n.d. 1.42 1.10 1.67,0 of 18
KLSVSWLFESIEKNSVA,ERSTRED,QDYNRLPLS,1.76 1.61 1.48 1.40 0.97 1.20,0 of 18